Experimental data taken from PubChem BioAssay AID1205 (EPA DSSTox, 2008).
The source made the active and inactive calls.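 The calls were made as follows: active = tumour findings in long-term animal cancer tests in more than one sex, species or organ; inactive = no tumour finding and more than one negative test.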

Assay: DSSTox (CPDBAS) Carcinogenic Potency Database Summary MultiCellCall Results
Conditions: animal carcinogenicity bioassays, multi-cell call summary
From the text: The Carcinogenic Potency Database (CPDB) is a unique and widely used international resource of the results of over 6500 chronic, long-term animal cancer tests on over 1500 chemical substances. The CPDB provides easy access to the bioassay literature, with qualitative and quantitative analyses of both positive and negative experiments that have been published over the past 50 years in the general literature and by the National Cancer Institute/National Toxicology Program. The CPDB standardizes the diverse literature of cancer bioassays that vary widely in protocol, histopathological examination and nomenclature, and in the published author's choices of what information to provide in their papers. Results are reported in the CPDB for tests in rats, mice, hamsters, dogs, and nonhuman primates, and are based on the most positive result among all experiments for each sex-species. The DSSTox CPDBAS (all species) file incorporates data from the CPDB Summary Tables for the full list of over 1500 chemical substances tested in at least one species. A summary MultiCellCall, based on experimental bioassay results of one or more species, is provided in the DSSTox CPDBAS file (see Source URL) for more than 1150 chemical substances.
Associated TD50 values and tumor site details for the relevant species/sex experiment supporting the overall CPDBAS MultiSiteCall are provided in the full DSSTox CPDBAS file (see Comment) and the corresponding CPDBAS Species Bioassay in PubChem. ActivityScore is computed as follows: multispecies=50, multisex=30, multisite=20, with combination scores computed as sums of these values, e.g. multispecies+multisite=70.

SMILES | outcome
CN(C)[N+](=O)[O-] | active; multisite active; multisex active
O=[N+]([O-])c1cc([N+](=O)[O-])cc([N+](=O)[O-])c1 | inactive; multisex inactive
O=[N+]([O-])OCC(CO[N+](=O)[O-])(CO[N+](=O)[O-])CO[N+](=O)[O-] | inactive; multisex inactive; multispecies inactive
ClCl | inactive; multisex inactive; multispecies inactive
CN[N+](=O)[O-] | active; multisex active
